The assay addresses CDK9/Cyclin T1 (Homo sapiens (Human), UniProt P50750). Nature of the assay: biochemical.

The chains behind the UniProt entries cited, without tags or fusion partners.
UniProt P50750, whole entry: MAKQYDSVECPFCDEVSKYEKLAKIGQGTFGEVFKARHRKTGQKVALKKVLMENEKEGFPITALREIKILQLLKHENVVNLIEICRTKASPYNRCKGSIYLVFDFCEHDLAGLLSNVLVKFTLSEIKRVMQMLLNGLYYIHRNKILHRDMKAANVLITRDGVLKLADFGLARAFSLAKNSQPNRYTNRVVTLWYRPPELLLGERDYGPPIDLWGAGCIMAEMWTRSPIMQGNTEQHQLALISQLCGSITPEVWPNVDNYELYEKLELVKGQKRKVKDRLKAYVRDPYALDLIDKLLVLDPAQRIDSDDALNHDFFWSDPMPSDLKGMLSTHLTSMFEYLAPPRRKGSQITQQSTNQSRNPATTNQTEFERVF

Structures are written as SMILES.

The term IC50 denotes the concentration that inhibits the measured activity by half. A high value points to weaker potency. Regarding `O=C(Nc1cc(-c2ccc3ncn(Cc4cncc(F)c4)c3c2)c(Cl)cn1)[C@@H]1CCCNC1` [Example 131, (3R)—N-(5-chloro-4-{1-[(5-fluoropyridin-3-yl)methyl]-1H-benzimidazol-6-yl}pyridin-2-yl)piperidine-3-carboxamide], the IC50 is 0.04 µM.
